Earlier results, collected in US11071781B2, “Combination of local and systemic immunomodulative therapies for enhanced treatment of cancer” (Provectus Pharmatech, Inc., priority 2011, dated 2021).

Test system: melanoma
Settings: intralesional therapy, patients

Substance: interleukin-2: interleukin 2, non-specific cytokine
- toxicity and side effects: flu like symptoms
